Measurements as given in patent US6034062A, “Bone morphogenetic protein (BMP)-9 compositions and their uses” (Genetics Institute, Inc., priority 1997, dated 2000).
Read-outs that look alike come from different tables or passages of the source.

Tests used:
[1] = tested on: W-20 cells; experiment: Osteocalcin RIA, W-20 cells; type: cell-based, mice; details: 96 hours
Experimental: W-20 cells are plated at 10^6 cells per well in 24 well multiwell tissue culture dishes in 2 mls of DME containing 10% heat inactivated fetal calf serum, 2 mM glutamine. The cells are allowed to attach overnight in an atmosphere of 95% air 5% CO2 at 37° C.
The next day the medium is changed to DME containing 10% fetal calf serum, 2 mM glutamine and the test substance in a total volume of 2 ml. Each test substance is administered to triplicate wells. The test substances are incubated with the W-20 cells for a total of 96 hours with replacement at 48 hours by the same test medias.
At. the end of 96 hours, 50 μl of the test media is removed from each well and assayed for osteocalcin production using a radioimmunoassay for mouse osteocalcin. The details of the assay are described in the kit manufactured by Biomedical Technologies Inc., 378 Page Street, Stoughton, Mass. 02072. Reagents for the assay are found as product numbers BT-431 (mouse osteocalcin standard), BT-432 (Goat anti-mouse Osteocalcin), BT-431R (iodinated mouse osteocalcin), BT-415 (normal goat serum) and BT-414 (donkey anti goat IgG). The RIA for osteocalcin synthesized by W-20 cells in response to BMP treatment is carried out as described in the protocol provided by the manufacturer.
The values obtained for the test samples are compared to values for known standards of mouse osteocalcin and to the amount of osteocalcin produced by W-20 cells in response to challenge with known amounts of BMP-2.

[2] = tested on: W-20 cells; experiment: W-20 alkaline phosphatase assay; type: cell-based, mice; details: for Absorbance Reading 405 nmeters: 24 hour incubation
Source text: Use of the W-20 bone marrow stromal cells as an indicator cell line is based upon the conversion of these cells to osteoblast-like cells after treatment with BMP-2 [R. S. Thies et al., "Bone Morphogenetic Protein alters W-20 stromal cell differentiation in vitro", Journal of Bone and Mineral Research 5(2):305 (1990); and R. S. Thies et al., "Recombinant Human Bone Morphogenetic Protein 2 Induces Osteoblastic Differentiation in W-20-17 Stromal Cells", Endocrinology, 130(3):1318-1324 (1992)]. Specifically, W-20 cells are a clonal bone marrow stromal cell line derived from adult mice by researchers in the laboratory of Dr. D. Nathan, Children's Hospital, Boston, Mass. […] Furthermore, to date we have observed conversion of W-20 stromal cells to osteoblast-like cells only upon treatment with BMPs.
W-20 cells are plated into 96 well tissue culture plates at a density of 10,000 cells per well in 200 μl of media (DME with 10% heat inactivated fetal calf serum, 2 mM glutamine and 100 U/ml+100 μg/ml streptomycin. The cells are allowed to attach overnight in a 95% air, 5% CO2 incubator at 37° C.
The 200 μl of media is removed from each well with a multichannel pipettor and replaced with an equal volume of test sample delivered in DME with 10% heat inactivated fetal calf serum, 2 mM glutamine and 1% penicillin-streptomycin. Test substances are assayed in triplicate.
The test samples and standards are allowed a 24 hour incubation period with the W-20 indicator cells. After the 24 hours, plates are removed from the 37° C. incubator and the test media are removed from the cells.
The W-20 cell layers are washed 3 times with 200 μl per well of calcium/magnesium free phosphate buffered saline and these washes are discarded.
50 μl of glass distilled water is added to each well and the assay plates are then placed on a dry ice/ethanol bath for quick freezing. Once frozen, the assay plates are removed from the dry ice/ethanol bath and thawed at 37° C. This step is repeated 2 more times for a total of 3 freeze-thaw procedures. Once complete, the membrane bound alkaline phosphatase is available for measurement.
50 μl of assay mix (50 mM glycine, 0.05% Triton X-100, 4 mM MgCl2, 5 mM p-nitrophenol phosphate, pH=10.3) is added to each assay well and the assay plates are then incubated for 30 minutes at 37° C. in a shaking waterbath at 60 oscillations per minute.
At the end of the 30 minute incubation, the reaction is stopped by adding 100 μl of 0.2 N NaOH to each well and placing the assay plates on ice.
The spectrophotometric absorbance for each well is read at a wavelength of 405 nanometers. These values are then compared to known standards to give an estimate of the alkaline phosphatase activity in each sample. For example, using known amounts of p-nitrophenol phosphate, absorbance values are generated.
Absorbance values for known amounts of BMP-2 can be determined and converted to μmoles of p-nitrophenol phosphate cleaved per unit time as shown in Table II.

[3] = tested on: W-20 cells; details: BMP-2 treatment of W-20 cells; cited from earlier work
[4] = tested on: W-20 cells; details: BMP-2 treatment of W-20 cells; cited from earlier work; remark: listed apart in the source
[5] = tested on: W-20 cells; details: BMP-2 treatment of W-20 cells; cited from earlier work; remark: listed apart in the source
[6] = tested on: BMP-9 receptors expressed on HepG2 cells; experiment: 125I-BMP-9 binding to HepG2 cells; details: 125I-BMP-9 and 250-fold excess of unlabeled ligand
Experimental: BMP-9 responsiveness in parenchymal liver cells is tested by screening four liver cell lines for their ability to bind iodinated, CHO-derived BMP-9. […] Specific binding of BMP-9 to HepG2 cells is carried out by incubating HepG2 cells grown to confluence in Dulbecco's Modified Eagle's Medium (DME) containing 10% heat-inactivated fetal calf serum (FCS) on gelatinized 6 well plates with 2 ng/ml ^125 I-BMP-9 and increasing concentrations of unlabelled BMP-9 in binding buffer (136.9 mM NaCl, 5.37 mM KCl, 1.26 mM CaCl2, 0.64 mM MgSO4, 0.34 mM Na2 HPO4, 0.44 mM KH2 PO4, 0.49 mM MgCl2, 25 mM HEPES and 0.5% BSA, pH 7.4) for 20 hours at 4° C. to achieve binding equilibrium. This incubation follows a one hour preincubation at 37° C. in binding buffer alone. For crosslinking experiments, the cells were incubated with 500 μM disuccinimidyl suberate for 20 minutes at […] following binding. Cell extracts were analyzed on SDS-PAGE. […] The curvilinear nature of the Scatchard plot indicates negative cooperativity among BMP-9 receptors or that HepG2 cells express at least two populations of BMP-9 receptors with different affinities. Crosslinking analysis on HepG2 cells with ^125 I-BMP-9 yields two binding proteins of apparent molecular weights of 54 and 80 kD. […]

[7] = BMP-2 concentration 12.50 ng/ml
[8] = BMP-2 concentration 100.0 ng/ml

BMP-2: bone morphogenetic protein 2, standard in the W-20 assays
Osteocalcin synthesis ([1]; BMP-2 Concentration 2 ng/ml): 0.9 ng/well | Osteocalcin synthesis ([1]; BMP-2 Concentration 4 ng/ml): 0.8 ng/well | Osteocalcin synthesis ([1]; BMP-2 Concentration 8 ng/ml): 2.2 ng/well | Osteocalcin synthesis ([1]; BMP-2 Concentration 16 ng/ml): 2.7 ng/well | Osteocalcin synthesis ([1]; BMP-2 Concentration 31 ng/ml): 3.2 ng/well | Osteocalcin synthesis ([1]; BMP-2 Concentration 62 ng/ml): 5.1 ng/well | Osteocalcin synthesis ([1]; BMP-2 Concentration 125 ng/ml): 6.5 ng/well | Osteocalcin synthesis ([1]; BMP-2 Concentration 250 ng/ml): 8.2 ng/well | Osteocalcin synthesis ([1]; BMP-2 Concentration 500 ng/ml): 9.4 ng/well | Osteocalcin synthesis ([1]; BMP-2 Concentration 1000 ng/ml): 10.0 ng/well | Alkaline phosphatase, umoles substrate per hour ([2]; BMP-2 concentration 1.56 ng/ml): 0.026 umoles substrate per hour | Absorbance Reading 405 nmeters ([2]; BMP-2 concentration 1.56 ng/ml): 0.696 | Alkaline phosphatase, umoles substrate per hour ([2]; BMP-2 concentration 3.12 ng/ml): 0.029 umoles substrate per hour | Absorbance Reading 405 nmeters ([2]; BMP-2 concentration 3.12 ng/ml): 0.765 | Alkaline phosphatase, umoles substrate per hour ([2]; BMP-2 concentration 6.25 ng/ml): 0.036 umoles substrate per hour | Absorbance Reading 405 nmeters ([2]; BMP-2 concentration 6.25 ng/ml): 0.923 | Alkaline phosphatase, umoles substrate per hour [2, 7]: 0.044 umoles substrate per hour | Absorbance Reading 405 nmeters [2, 7]: 1.121 | Alkaline phosphatase, umoles substrate per hour ([2]; BMP-2 concentration 25.0 ng/ml): 0.058 umoles substrate per hour | Absorbance Reading 405 nmeters ([2]; BMP-2 concentration 25.0 ng/ml): 1.457 | Alkaline phosphatase, umoles substrate per hour ([2]; BMP-2 concentration 50.0 ng/ml): 0.067 umoles substrate per hour | Absorbance Reading 405 nmeters ([2]; BMP-2 concentration 50.0 ng/ml): 1.662 | Alkaline phosphatase, umoles substrate per hour [2, 8]: 0.080 umoles substrate per hour | Absorbance Reading 405 nmeters [2, 8]: 1.977 | alkaline phosphatase production [3]: increased alkaline phosphatase production | PTH stimulated cAMP [4]: induction of PTH stimulated cAMP | Osteocalcin synthesis [5]: induction of osteocalcin synthesis | crossreactivity of BMP-9 receptors with unlabeled ligand [6]: limited crossreactivity

B1: BMP-2/6: printed as BMPs ... 2/6; unlabeled competing ligand, presumably BMP-2/BMP-6 heterodimer (protein)
chain 1: QAKHKQRKRLKSSCKRHPLYVDFSDVGWNDWIVAPPGYHAFYCHGECPFPLADHLNSTNHAIVQTLVNSVNSKIPKACCVPTELSAISMLYLDENEKVVLKNYQDMVVEGCGCR
chain 2: SASSRRRQQSRNRSTQSQDVARVSSASDYNSSELKTACRKHELYVSFQDLGWQDWIIAPKGYAANYCDGECSFPLNAHMNATNHAIVQTLVHLMNPEYVPKPCCAPTKLNAISVLYFDDNSNVILKKYRNMVVRACGCH
crossreactivity of BMP-9 receptors with unlabeled ligand [6]: no crossreactivity
